Chains of the proteins cited; added tags and fusions are not shown.
UniProt Q15858, whole entry: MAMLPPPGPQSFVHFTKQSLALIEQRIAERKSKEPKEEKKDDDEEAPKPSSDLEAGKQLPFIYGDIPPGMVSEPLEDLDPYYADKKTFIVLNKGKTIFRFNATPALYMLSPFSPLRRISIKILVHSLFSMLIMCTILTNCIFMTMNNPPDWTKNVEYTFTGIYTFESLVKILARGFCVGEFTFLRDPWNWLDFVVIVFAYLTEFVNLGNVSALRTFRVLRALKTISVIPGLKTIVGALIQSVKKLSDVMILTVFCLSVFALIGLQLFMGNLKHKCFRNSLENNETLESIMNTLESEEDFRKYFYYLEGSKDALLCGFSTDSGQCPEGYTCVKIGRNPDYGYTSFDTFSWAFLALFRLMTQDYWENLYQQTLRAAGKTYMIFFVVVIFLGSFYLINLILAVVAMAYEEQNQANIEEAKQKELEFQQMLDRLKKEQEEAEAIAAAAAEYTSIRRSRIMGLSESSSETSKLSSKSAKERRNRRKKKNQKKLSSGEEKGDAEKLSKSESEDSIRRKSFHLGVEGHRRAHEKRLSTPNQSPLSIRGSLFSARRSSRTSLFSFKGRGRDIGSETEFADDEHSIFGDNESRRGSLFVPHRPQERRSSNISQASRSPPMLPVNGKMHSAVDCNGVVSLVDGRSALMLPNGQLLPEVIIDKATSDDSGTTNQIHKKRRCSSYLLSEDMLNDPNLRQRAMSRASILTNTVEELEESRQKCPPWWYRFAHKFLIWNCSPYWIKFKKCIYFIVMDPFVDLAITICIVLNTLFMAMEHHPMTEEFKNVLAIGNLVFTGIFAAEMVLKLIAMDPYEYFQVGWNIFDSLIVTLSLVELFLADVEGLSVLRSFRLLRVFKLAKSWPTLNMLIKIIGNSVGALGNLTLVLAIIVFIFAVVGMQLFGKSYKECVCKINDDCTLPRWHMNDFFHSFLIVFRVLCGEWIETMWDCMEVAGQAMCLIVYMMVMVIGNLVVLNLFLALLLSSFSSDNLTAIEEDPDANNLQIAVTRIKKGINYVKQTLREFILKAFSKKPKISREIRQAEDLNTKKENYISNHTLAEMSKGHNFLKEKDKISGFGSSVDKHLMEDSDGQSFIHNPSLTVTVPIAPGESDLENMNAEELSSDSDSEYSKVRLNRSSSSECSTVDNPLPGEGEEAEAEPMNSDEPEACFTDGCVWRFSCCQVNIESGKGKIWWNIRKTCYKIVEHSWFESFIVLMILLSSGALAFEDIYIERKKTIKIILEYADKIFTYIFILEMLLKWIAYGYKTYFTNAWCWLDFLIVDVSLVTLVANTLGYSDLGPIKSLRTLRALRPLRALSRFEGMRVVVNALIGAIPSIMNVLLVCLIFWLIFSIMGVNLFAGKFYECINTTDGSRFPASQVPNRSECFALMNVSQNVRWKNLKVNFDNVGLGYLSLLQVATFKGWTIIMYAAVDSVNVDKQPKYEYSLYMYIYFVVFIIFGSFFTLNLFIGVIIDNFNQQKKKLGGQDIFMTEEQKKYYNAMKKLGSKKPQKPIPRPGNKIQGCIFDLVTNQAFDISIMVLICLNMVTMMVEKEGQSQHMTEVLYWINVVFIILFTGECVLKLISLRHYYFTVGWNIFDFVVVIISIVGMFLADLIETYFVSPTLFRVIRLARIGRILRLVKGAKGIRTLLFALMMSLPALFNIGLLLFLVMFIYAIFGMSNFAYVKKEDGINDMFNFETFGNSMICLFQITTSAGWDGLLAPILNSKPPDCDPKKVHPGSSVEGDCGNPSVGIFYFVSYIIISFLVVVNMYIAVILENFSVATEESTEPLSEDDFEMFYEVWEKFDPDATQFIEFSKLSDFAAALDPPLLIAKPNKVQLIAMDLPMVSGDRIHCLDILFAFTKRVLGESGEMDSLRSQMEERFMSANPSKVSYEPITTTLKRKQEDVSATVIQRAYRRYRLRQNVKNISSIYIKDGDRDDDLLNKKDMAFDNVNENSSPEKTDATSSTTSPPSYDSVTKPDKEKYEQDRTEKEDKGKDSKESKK

According to patent publication US9493448B2, “Cycloalkane derivatives” (Daiichi Sankyo Company, Limited, priority 2012, dated 2016):

Molecular target: hNav 1.7 (Homo sapiens (Human), UniProt Q15858)
Assay: Electrophysiological evaluation, automated patch clamp IonWorks Quattro (Population Patch Clamp mode)
Format: cell-based
Conditions: HEK293A cells stably expressing hNav 1.7/β1/β2; response to second depolarization pulse, pre-pulse potential set to V1/2; read-out: hNav1.7 IC50

IC50 [nM] | SMILES
1000 | Cn1nccc1[C@H]1CC[C@H](OCc2ccccc2)C[C@@H]1Oc1cc(F)c(S(=O)(=O)Nc2ccncn2)cc1F (relative stereo) [Example 113, 4-{[(1S*,2R*,5S*)-5-(Benzyloxy)-2-(1-methyl-1H-pyrazol-5-yl)cyclohexyl]oxy}-2,5-difluoro-N-(pyrimidin-4-yl)benzenesulfonamide]
1000 | O=S(=O)(Nc1ccncn1)c1cc(F)c(OC2CCCCC2n2ccnc2)cc1F (stereo not drawn) [Example 32, 2,5-Difluoro-4-{[(1S*,2R*)-2-(1H-imidazol-1-yl)cyclohexyl]oxy}-N-(pyrimidin-4-yl)benzenesulfonamide]
